In test [1] the target is T1, High affinity cGMP-specific 3',5'-cyclic phosphodiesterase 9A [226-593] (Homo sapiens, UniProt O76083).
T1 construct: 226-593

Protein sequences, listed by entry. Tags and fused reporters are not part of them. Residues count along the entry.
UniProt O76083, 226-593: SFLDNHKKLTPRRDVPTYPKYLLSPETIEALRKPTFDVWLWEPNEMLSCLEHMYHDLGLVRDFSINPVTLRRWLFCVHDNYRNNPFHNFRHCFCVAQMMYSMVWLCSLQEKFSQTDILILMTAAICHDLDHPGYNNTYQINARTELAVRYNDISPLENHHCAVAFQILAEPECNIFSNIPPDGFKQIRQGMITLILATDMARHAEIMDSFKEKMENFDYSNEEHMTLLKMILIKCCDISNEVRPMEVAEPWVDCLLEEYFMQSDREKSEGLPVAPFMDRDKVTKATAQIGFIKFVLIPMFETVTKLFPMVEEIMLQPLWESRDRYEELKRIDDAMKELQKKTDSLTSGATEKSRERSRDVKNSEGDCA
UniProt O00408, 574-941: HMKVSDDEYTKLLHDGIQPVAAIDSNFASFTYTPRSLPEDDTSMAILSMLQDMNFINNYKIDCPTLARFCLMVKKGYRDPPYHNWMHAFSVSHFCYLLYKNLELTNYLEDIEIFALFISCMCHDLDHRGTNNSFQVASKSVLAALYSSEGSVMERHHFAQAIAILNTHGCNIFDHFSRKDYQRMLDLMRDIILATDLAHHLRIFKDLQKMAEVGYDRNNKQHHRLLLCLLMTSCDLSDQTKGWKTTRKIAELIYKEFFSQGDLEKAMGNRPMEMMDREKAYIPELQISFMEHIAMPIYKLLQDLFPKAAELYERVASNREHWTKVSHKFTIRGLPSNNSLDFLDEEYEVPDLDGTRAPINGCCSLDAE

Test [2] addresses T2, cGMP-dependent 3',5'-cyclic phosphodiesterase [574-941] (Homo sapiens, UniProt O00408).
T2 construct: 574-941
Briefly: Phosphodiesterase (PDE) Inhibition Assay.

Counter-ions that a name gives are not always drawn.

In general, IC50 refers to the point on the concentration scale where inhibition reaches its midpoint. The low end stands for inhibition by little substance, the high end for a need for much substance. For the molecule `CCCc1nn(C)c2c(=O)[nH]c(-c3cc(S(=O)(=O)N4CCN(C)CC4)ccc3OCC)nc12` [SILDENAFIL CITRATE], the IC50 was determined as 5.6 µM in test [1] and 35 µM in test [2].

Source of the values: BindingDB's records for doi:10.1016/j.str.2004.10.004 (Plexxikon, 2004).
